Like-named read-outs stand apart in the source and are kept apart here.
Biological target: MRGPRX4 (Homo sapiens, UniProt Q96LA9)
Assay: MRGPRX4 activity assay, antagonism versus deoxycholic acid (DCA), IP-One Gq HTRF
Settings: SH-4 cells
[1] = read-out: MRGPRX4 antagonist activity, versus 30 μM DCA agonist, Table 3

Amino acid sequences for entries named in this document (tags omitted).
UniProt Q96LA9, whole entry: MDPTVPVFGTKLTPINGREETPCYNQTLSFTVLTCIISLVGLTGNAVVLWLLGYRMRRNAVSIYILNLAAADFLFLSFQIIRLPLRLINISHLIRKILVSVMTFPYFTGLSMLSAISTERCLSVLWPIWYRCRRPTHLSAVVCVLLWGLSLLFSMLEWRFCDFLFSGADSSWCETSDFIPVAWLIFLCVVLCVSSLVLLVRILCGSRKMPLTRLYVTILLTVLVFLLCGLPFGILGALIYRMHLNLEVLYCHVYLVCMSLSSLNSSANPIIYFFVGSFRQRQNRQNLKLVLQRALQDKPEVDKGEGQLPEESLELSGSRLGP

Row | SMILES | IC50 [1] | IC50 (30 μM DCA agonist, Table 1)
1 | CC(C)(C)c1ccc2c(c1)CC(c1cccc(C(=O)O)c1)O2 (centres unmarked) | > 3000 nM | –
2 | CC(C)c1ccc2c(c1)CC(c1cccc(C(=O)O)c1)O2 (centres unmarked) | 1000 to 3000 nM | –
3 | CCS(=O)(=O)NC(=O)c1cccc([C@@H]2Cc3cc(C(F)(F)F)ccc3O2)c1 | 1000 to 3000 nM | –
4 | CN(C)S(=O)(=O)NC(=O)c1cccc([C@@H]2Cc3cc(C(F)(F)F)ccc3O2)c1 | 1000 to 3000 nM | –
5 | COc1c(F)ccc(-c2cccc(C3Cc4cc(C(F)(F)F)ccc4O3)c2)c1F (centres unmarked) | > 3000 nM | –
6 | COc1cc(-c2nnn[nH]2)cc(C2Cc3cc(C(F)(F)F)ccc3O2)c1 (centres unmarked) | 500 to 1000 nM | –
7 | Cc1cc(-c2nnn[nH]2)nc(C2Cc3cc(C(F)(F)F)ccc3O2)c1 (centres unmarked) | 100 to 500 nM | –
8 | Cc1cc(-c2noc(=O)[nH]2)cc([C@@H]2Cc3cc(C(F)(F)F)ccc3O2)c1 | 100 to 500 nM | –
9 | Cc1cc(-c2noc(=O)[nH]2)nc(C2Cc3cc(C(F)(F)F)ccc3O2)c1 (centres unmarked) | 100 to 500 nM | –
10 | Cc1cc(Cl)cc2c1OC(c1cccc(-c3nnn[nH]3)c1)C2 (centres unmarked) | 100 to 500 nM | –
11 | Cc1cc2c(cc1Cl)CC(c1cccc(-c3nnn[nH]3)c1)O2 (centres unmarked) | 100 to 500 nM | –
12 | Cc1cc2c(cc1F)CC(c1cccc(-c3nnn[nH]3)c1)O2 (centres unmarked) | 500 to 1000 nM | –
13 | Clc1cc(Cl)c2c(c1)CC(c1cccc(-c3nnn[nH]3)c1)O2 (centres unmarked) | 100 to 500 nM | –
14 | Clc1cc2c(cc1Cl)OC(c1cccc(-c3nnn[nH]3)c1)C2 (centres unmarked) | < 100 nM | –
15 | Clc1cc2c(cc1Cl)OC(c1cccc(-c3nnn[nH]3)n1)C2 (centres unmarked) | 100 to 500 nM | –
16 | Cn1nnc(-c2cccc([C@@H]3Cc4cc(C(F)(F)F)ccc4O3)c2)n1 | 1000 to 3000 nM | –
17 | FC(F)(F)c1cc(Cl)c2c(c1)CC(c1cccc(-c3nnn[nH]3)c1)O2 (centres unmarked) | < 100 nM | –
18 | FC(F)(F)c1cc(Cl)c2c(c1)CC(c1cccc(-c3nnn[nH]3)n1)O2 (centres unmarked) | < 100 nM | –
19 | FC(F)(F)c1ccc2c(c1)CC(c1cc(-c3nnn[nH]3)cs1)O2 (centres unmarked) | 500 to 1000 nM | –
20 | FC(F)(F)c1ccc2c(c1)CC(c1ccc(-c3nnn[nH]3)s1)O2 (centres unmarked) | > 3000 nM | –
21 | FC(F)(F)c1ccc2c(c1)CC(c1cccc(-c3ccccn3)c1)O2 (centres unmarked) | 1000 to 3000 nM | –
22 | FC(F)(F)c1ccc2c(c1)CC(c1cccc(-c3ncc[nH]3)c1)O2 (centres unmarked) | > 3000 nM | –
23 | FC(F)(F)c1ccc2c(c1)CC(c1cccc(-c3nnn[nH]3)c1)O2 (centres unmarked) | < 100 nM | 39.4 nM
24 | FC(F)(F)c1ccc2c(c1)CC(c1cccc(-c3nnn[nH]3)n1)O2 (centres unmarked) | < 100 nM | –
25 | FC(F)(F)c1ccc2c(c1)CC(c1ccnc(-c3nnn[nH]3)c1)O2 (centres unmarked) | 100 to 500 nM | –
26 | FC(F)(F)c1ccc2c(c1)CC(c1cncc(-c3nnn[nH]3)c1)O2 (centres unmarked) | > 3000 nM | –
27 | FC(F)(F)c1ccc2c(c1)OC(c1cccc(-c3nnn[nH]3)c1)C2 (centres unmarked) | 500 to 1000 nM | –

Row | SMILES | IC50 [1] | IC50 (30 μM DCA agonist, Table 1)
28 | FC(F)c1ccc2c(c1)CC(c1cccc(-c3nnn[nH]3)c1)O2 (centres unmarked) | 100 to 500 nM | –
29 | Fc1cc(-c2nnn[nH]2)cc([C@@H]2Cc3cc(C(F)(F)F)ccc3O2)c1 | 100 to 500 nM | –
30 | Fc1cc2c(cc1Cl)CC(c1cccc(-c3nnn[nH]3)c1)O2 (centres unmarked) | < 100 nM | –
31 | Fc1cc2c(cc1Cl)CC(c1cccc(-c3nnn[nH]3)n1)O2 (centres unmarked) | < 100 nM | –
32 | Fc1cc2c(cc1Cl)OC(c1cccc(-c3nnn[nH]3)c1)C2 (centres unmarked) | 100 to 500 nM | –
33 | Fc1cc2c(cc1F)OC(c1cccc(-c3nnn[nH]3)c1)C2 (centres unmarked) | 100 to 500 nM | –
34 | N#Cc1cc(-c2nnn[nH]2)cc(C2Cc3cc(C(F)(F)F)ccc3O2)c1 (centres unmarked) | < 100 nM | –
35 | N#Cc1cc(-c2noc(=O)[nH]2)cc(C2Cc3cc(C(F)(F)F)ccc3O2)c1 (centres unmarked) | < 100 nM | –
36 | N#Cc1cc(-c2noc(=O)[nH]2)cc(C2Cc3cc(Cl)c(F)cc3O2)c1 (centres unmarked) | < 100 nM | –
37 | NS(=O)(=O)c1cccc(C2Cc3cc(C(F)(F)F)ccc3O2)c1 (centres unmarked) | > 3000 nM | –
38 | O=C(NO)c1cccc([C@@H]2Cc3cc(C(F)(F)F)ccc3O2)c1 | > 3000 nM | –
39 | O=C(O)CCNC(=O)c1cccc([C@@H]2Cc3cc(C(F)(F)F)ccc3O2)c1 | 500 to 1000 nM | –
40 | O=C(O)c1cc(C2Cc3cc(C(F)(F)F)ccc3O2)ccn1 (centres unmarked) | 1000 to 3000 nM | –
41 | O=C(O)c1ccc([C@@H]2CCc3cc(C(F)(F)F)ccc3O2)cc1 | – | 2000 nM
42 | O=C(O)c1ccc([C@H]2CCc3cc(C(F)(F)F)ccc3O2)cc1 | – | 6000 nM
43 | O=C(O)c1cccc(C2CCCc3cc(C(F)(F)F)ccc3O2)c1 (centres unmarked) | > 3000 nM | –
44 | O=C(O)c1cccc(C2CCc3cc(C(F)(F)F)ccc3OC2)c1 (centres unmarked) | > 3000 nM | –
45 | O=C(O)c1cccc(C2Cc3cc(-c4ccc(F)cc4)ccc3O2)c1 (centres unmarked) | 1000 to 3000 nM | –
46 | O=C(O)c1cccc(C2Cc3cc(-c4ccsc4)ccc3O2)c1 (centres unmarked) | 1000 to 3000 nM | –
47 | O=C(O)c1cccc(C2Cc3cc(C(F)(F)F)cc(Cl)c3O2)c1 (centres unmarked) | 100 to 500 nM | –
48 | O=C(O)c1cccc(C2Cc3cc(C(F)(F)F)ccc3O2)c1 (centres unmarked) | 500 to 1000 nM | –
49 | O=C(O)c1cccc(C2Cc3cc(C(F)(F)F)ccc3O2)c1F (centres unmarked) | 100 to 500 nM | –
50 | O=C(O)c1cccc(C2Cc3cc(C(F)(F)F)ccc3O2)n1 (centres unmarked) | 500 to 1000 nM | –
51 | O=C(O)c1cccc(C2Cc3cc(Cl)c(Cl)cc3O2)c1 (centres unmarked) | 500 to 1000 nM | –
52 | O=C(O)c1cccc(C2Cc3cc(Cl)c(F)cc3O2)c1 (centres unmarked) | 100 to 500 nM | –
53 | O=C(O)c1cccc(C2Cc3cc(OC(F)(F)F)c(Cl)cc3O2)c1 (centres unmarked) | 500 to 1000 nM | –
54 | O=C(O)c1cccc(C2Cc3cc(OC(F)(F)F)ccc3O2)c1 (centres unmarked) | 500 to 1000 nM | –

Row | SMILES | IC50 [1] | IC50 (30 μM DCA agonist, Table 1)
55 | O=C(O)c1cccc(C2Cc3ccc(C(F)(F)F)cc3O2)c1 (centres unmarked) | 1000 to 3000 nM | –
56 | O=C(O)c1cccc([C@@H]2CCc3cc(C(F)(F)F)ccc3O2)c1 | – | 2000 nM
57 | O=C(O)c1cccc([C@@H]2Cc3cc(C(F)(F)F)ccc3O2)c1 | – | 290 nM
58 | O=C(O)c1cccc([C@H]2CCc3cc(C(F)(F)F)ccc3O2)c1 | – | > 100000 nM
59 | O=C(O)c1cccc([C@H]2Cc3cc(C(F)(F)F)ccc3O2)c1 | – | 2000 nM
60 | O=C(O)c1ccnc(C2Cc3cc(C(F)(F)F)ccc3O2)c1 (centres unmarked) | > 3000 nM | –
61 | O=C(O)c1cncc(C2Cc3cc(C(F)(F)F)ccc3O2)c1 (centres unmarked) | > 3000 nM | –
62 | O=S(=O)(O)c1cccc(C2Cc3cc(C(F)(F)F)cc(Cl)c3O2)c1 (centres unmarked) | 1000 to 3000 nM | –
63 | O=c1[nH]c(-c2cc(F)cc(C3Cc4cc(Cl)c(F)cc4O3)c2)no1 (centres unmarked) | 100 to 500 nM | –
64 | O=c1[nH]c(-c2cc(F)cc([C@@H]3Cc4cc(C(F)(F)F)ccc4O3)c2)no1 | 100 to 500 nM | –
65 | O=c1[nH]c(-c2cccc(C3Cc4cc(C(F)(F)F)ccc4O3)c2)no1 (centres unmarked) | < 100 nM | –
66 | O=c1[nH]c(-c2cccc(C3Cc4cc(C(F)(F)F)ccc4O3)c2F)no1 (centres unmarked) | < 100 nM | –
67 | O=c1[nH]c(-c2cccc(C3Cc4cc(C(F)(F)F)ccc4O3)n2)no1 (centres unmarked) | 100 to 500 nM | –
68 | O=c1[nH]c(-c2cccc(C3Cc4cc(Cl)c(F)cc4O3)c2)no1 (centres unmarked) | 100 to 500 nM | –
69 | O=c1[nH]c(-c2cccc(C3Cc4cc(Cl)c(F)cc4O3)c2F)no1 (centres unmarked) | < 100 nM | –
70 | O=c1[nH]c(-c2cccc(C3Cc4cc(Cl)c(F)cc4O3)n2)no1 (centres unmarked) | 100 to 500 nM | –
71 | O=c1[nH]c(-c2cccc(C3Cc4cc(Cl)cc(Cl)c4O3)c2)no1 (centres unmarked) | 1000 to 3000 nM | –
72 | O=c1[nH]c(-c2cccc(C3Cc4cc(Cl)cc(Cl)c4O3)n2)no1 (centres unmarked) | 500 to 1000 nM | –
73 | O=c1[nH]c(-c2cccc([C@@H]3Cc4cc(C(F)(F)F)cc(Cl)c4O3)c2)no1 | 100 to 500 nM | –
74 | O=c1[nH]c(-c2cccc([C@@H]3Cc4cc(C(F)(F)F)ccc4O3)c2)no1 | 100 to 500 nM | –
75 | O=c1[nH]c(-c2cccc([C@@H]3Cc4cc(C(F)(F)F)ccc4O3)c2F)no1 | – | 24 nM
76 | O=c1oc(-c2cccc(C3Cc4cc(C(F)(F)F)ccc4O3)c2)ns1 (centres unmarked) | 1000 to 3000 nM | –
77 | Oc1c(-c2nnn[nH]2)cccc1C1Cc2cc(C(F)(F)F)ccc2O1 (centres unmarked) | 500 to 1000 nM | –
78 | Oc1c(F)cc(-c2cccc(C3Cc4cc(C(F)(F)F)ccc4O3)c2)cc1F (centres unmarked) | > 3000 nM | –
79 | Oc1cc(-c2cccc(C3Cc4cc(C(F)(F)F)ccc4O3)c2)on1 (centres unmarked) | 1000 to 3000 nM | –
